Results on 1 compound are retold here after PubChem BioAssay AID434982 (The Scripps Research Institute Molecular Screening Center, 2010).

Molecules are shown by their SMILES. The entries are a selection whose mix differs from that of the whole data set. Calls of active or inactive are those of the source. Cut-off read from the data, not from the text of the source: active = activation above about 2.2%; inactive = the rest.

This test is described as follows: agonists of NOTCH signaling (AID 434982). Conditions: NOTCH signaling luciferase reporter cells, luminescence; at 2.5 µM; hits give high values.
Turning to `Cc1ccccc1NC1CC(C)(C)NC(C)(C)C1`, the activation is inactive: -0.77%.
